# Assay results published in US11236106B2, “Cycloalkane-1,3-diamine derivative” (Daiichi Sankyo Company, Limited, priority 2018, dated 2022).
# Assays:
# Assay in all cases: cells
# Conditions in all cases: Homo sapiens
# MV-4-11 cells = system: MV-4-11 cells
# MOLM-13 cells = system: MOLM-13 cells
# K562 cells = system: K562 cells
# [1] = MV4-11, 72 h, read-out: GI50 (μM) Day3 MV4;11, MV4;11, Day3
# [2] = MOLM-13, 72 h, read-out: GI50 (μM) Day3 MOLM-13, MOLM-13, Day3
# [3] = K562, 72 h, read-out: GI50 (μM) Day3 K562
# [4] = MV4-11, 168 h, read-out: GI50 (μM) Day7 MV4;11, MV4;11, Day7
# [5] = MOLM-13, 168 h, read-out: GI50 (μM) Day7 MOLM-13, MOLM-13, Day7
# [6] = K562, 168 h, read-out: GI50 (μM) Day7 K562
# [7] = MV4-11, 72 h, read-out: GI50, cell growth inhibitory activity, MV-4-11, day 3, MV-4-11 cells, cultured 3 days, assigned by order and values
# [8] = MV4-11, 168 h, read-out: GI50, cell growth inhibitory activity, MV-4-11, day 7, MV-4-11 cells, cultured 7 days, assigned by order and values
# [9] = MOLM-13, 72 h, read-out: GI50, cell growth inhibitory activity, MOLM-13, day 3, MOLM-13 cells, cultured 3 days, assigned by order and values
# [10] = MOLM-13, 168 h, read-out: GI50, cell growth inhibitory activity, MOLM-13, day 7, MOLM-13 cells, cultured 7 days, assigned by order and values
# [11] = K562, 72 h, read-out: GI50, cell growth inhibitory activity, K562, day 3
# [12] = K562, 168 h, read-out: GI50, cell growth inhibitory activity, K562, day 7
smiles,measurement,setting,value
"CN(c1ncnc2sc(CC(F)(F)F)cc12)[C@@H]1CC[C@H](NCc2cncs2)C1 [Example 36, (1R,3S)-N^1-methyl-N^3-[(1,3-thiazol-5-yl)methyl]-N^1-[6-(2,2,2-trifluoroethyl)thieno[2,3-d]pyrimidin-4-yl]cyclopentane-1,3-diamine hydrochloride]",GI50,MV-4-11 cells; [1],3.13 µM
same,GI50,MOLM-13 cells; [2],3.14 µM
same,GI50,K562 cells; [3],> 10 µM
"CN(c1ncnc2sc(CC(F)(F)F)cc12)[C@@H]1CC[C@H](NCc2ccc(-c3cnc4ccoc4c3)cc2)C1 [Example 14, (1R,3S)—N^3-{[4-(furo[3,2-b]pyridin-6-yl)phenyl]methyl}-N^1-methyl-N^1-[6-(2,2,2-trifluoroethyl)thieno[2,3-d]pyrimidin-4-yl]cyclopentane-1,3-diamine Hydrochloride]",GI50,MV-4-11 cells; [1],0.655 µM
same,GI50,MOLM-13 cells; [2],1.48 µM
same,GI50,K562 cells; [3],2.23 µM
"COc1cncc(-c2ccc(CN[C@H]3C[C@@H](Nc4ncnc5sc(CC(F)(F)F)cc45)C[C@@H](C(=O)N(C)C)C3)cc2)c1 (single isomer, unassigned) [Example 17A, Hydrochloride]",GI50,MV-4-11 cells; [1],2.25 µM
same,GI50,MV-4-11 cells; [4],1.58 µM
same,GI50,MOLM-13 cells; [2],3.29 µM
same,GI50,MOLM-13 cells; [5],3.35 µM
same,GI50,K562 cells; [3],8.66 µM
same,GI50,K562 cells; [6],5.27 µM
"CN(c1ncnc2sc(CC(F)(F)F)cc12)[C@@H]1CC[C@H](NCc2ccc(S(=O)(=O)c3ccccc3)cc2)C1 [Example 53, (1R,3S)N^3-{[4-(benzenesulfonyl)phenyl]methyl}N^1-methyl-N^1-[6-(2,2,2-trifluoroethyl)thieno[2,3-d]pyrimidin-4-yl]cyclopentane-1,3-diamine hydrochloride]",GI50,MV-4-11 cells; [4],0.395 µM
same,GI50,MOLM-13 cells; [5],0.826 µM
same,GI50,K562 cells; [6],0.908 µM
"COc1cc(-c2ccc(CN[C@H]3C[C@@H](O)[C@@H](N(C)c4ncnc5sc(CC(F)(F)F)cc45)C3)c(C)c2)cnc1OC [Example 78, (1R,2S,4R)-4-({[4-(5,6-dimethoxypyridin-3-yl)-2-methylphenyl]methyl}amino)-2-{methyl[6-(2,2,2-trifluoroethyl)thieno[2,3-d]pyrimidin-4-yl]amino}cyclopentan-1-ol hydrochloride]",GI50,MV-4-11 cells; [7],0.219 µM
same,GI50,MV-4-11 cells; [8],0.114 µM
same,GI50,MOLM-13 cells; [9],1.72 µM
same,GI50,MOLM-13 cells; [10],0.378 µM
same,GI50,K562 cells; [11],3.53 µM
same,GI50,K562 cells; [12],1.99 µM
"COc1nc(N(C)[C@H]2C[C@@H](NCc3ccc(-c4cnc(OC)c(OC)c4)cc3)C[C@H]2O)c2cc(CC(F)(F)F)sc2n1 [Example 81, (1R,2S,4R)-4-({[4-(5,6-dimethoxypyridin-3-yl)phenyl]methyl}amino)-2-{[2-methoxy-6-(2,2,2-trifluoroethyl)thieno[2,3-d]pyrimidin-4-yl](methyl)amino}cyclopentan-1-ol hydrochloride]",GI50,MV-4-11 cells; [7],0.0544 µM
same,GI50,MV-4-11 cells; [8],0.0246 µM
same,GI50,MOLM-13 cells; [9],0.569 µM
same,GI50,MOLM-13 cells; [10],0.0943 µM
same,GI50,K562 cells; [11],2.22 µM
same,GI50,K562 cells; [12],1.61 µM
"COc1cncc(-c2ccc(CN[C@@H]3C[C@H](N(C)c4ncnc5sc(CC(F)(F)F)cc45)C[C@H]3O)cc2)c1 [Example 50, (1R,2R,4S)-2-({[4-(5-methoxypyridin-3-yl)phenyl]methyl}amino)-4-{methyl[6-(2,2,2-trifluoroethyl)thieno[2,3-d]pyrimidin-4-yl]amino}cyclopentan-1-ol hydrochloride]",GI50,MV-4-11 cells; [1],0.2 µM
same,GI50,MV-4-11 cells; [4],0.0812 µM
same,GI50,MOLM-13 cells; [2],2.53 µM
same,GI50,MOLM-13 cells; [5],0.33 µM
same,GI50,K562 cells; [3],5.69 µM
same,GI50,K562 cells; [6],3.29 µM
"FC(F)(F)Cc1cc2c(N[C@@H]3CCC[C@H](NCc4ccc(Oc5ccccc5)cc4)C3)ncnc2s1 [Example 41, (1S,3R)-N^1-[(4-phenoxyphenyl)methyl]-N^3-[6-(2,2,2-trifluoroethyl)thieno[2,3-d]pyrimidin-4-yl]cyclohexane-1,3-diamine hydrochloride]",GI50,MV-4-11 cells; [1],2.46 µM
same,GI50,MOLM-13 cells; [2],2.54 µM
same,GI50,K562 cells; [3],2.67 µM
"COc1cc(-c2ccc(CN[C@H]3C[C@@H](O)[C@@H](N(C)c4ncncc4Oc4ccc(F)cc4C(=O)N(C(C)C)C(C)C)C3)cc2)nnc1OC [Example 89, 2-[(4-{[(1S,2R,4R)-4({[4-(5,6-dimethoxypyridazin-3-yl)phenyl]methyl}amino)-2-hydroxycyclopentyl](methyl)amino}pyrimidin-5-yl)oxy]-5-fluoro-N,N-di(propan-2-yl)benzamide hydrochloride]",GI50,MV-4-11 cells; [7],0.0761 µM
same,GI50,MV-4-11 cells; [8],0.0467 µM
same,GI50,MOLM-13 cells; [9],7.18 µM
same,GI50,MOLM-13 cells; [10],0.185 µM
same,GI50,K562 cells; [11],> 10 µM
same,GI50,K562 cells; [12],> 10 µM
"C=CC(=O)NCCCNC(=O)c1ccc(CN[C@H]2CC[C@@H](N(C)c3ncnc4sc(CC(F)(F)F)cc34)C2)cc1 [Example 6, 4-({[(1S,3R)-3-{methyl[6-(2,2,2-trifluoroethyl)thieno[2,3-d]pyrimidin-4-yl]amino}cyclopentyl]amino}methyl)-N-{3-[(prop-2-enoyl)amino]propyl}benzamide Hydrochloride]",GI50,MV-4-11 cells; [1],0.679 µM
same,GI50,MV-4-11 cells; [4],0.439 µM
same,GI50,MOLM-13 cells; [5],1.1 µM
same,GI50,K562 cells; [3],> 10 µM
same,GI50,K562 cells; [6],6.89 µM
"CN(c1ncnc2sc(CC(F)(F)F)cc12)[C@H]1C[C@@H](NCc2ccc(-c3cc(F)cc4c3cnn4S(C)(=O)=O)cc2)C[C@H]1O [Example 85, (1R,2S,4R)-4-[({4-[6-fluoro-1-(methanesulfonyl)-1H-indazol-4-yl]phenyl}methyl)amino]-2-{methyl[6-(2,2,2-trifluoroethyl)thieno[2,3-d]pyrimidin-4-yl]amino}cyclopentan-1-ol hydrochloride]",GI50,MV-4-11 cells; [7],0.137 µM
same,GI50,MV-4-11 cells; [8],0.0749 µM
same,GI50,MOLM-13 cells; [9],0.742 µM
same,GI50,MOLM-13 cells; [10],0.24 µM
same,GI50,K562 cells; [11],2.04 µM
same,GI50,K562 cells; [12],0.921 µM
"COc1cc(-c2ccc(CN[C@H]3C[C@@H](O)[C@@H](N(C)c4ncnc5sc(CC(F)(F)F)cc45)C3)cc2)nnc1C#N [Example 99, 6-[4-({[(1R,3R,4S)-3-hydroxy-4-{methyl[6-(2,2,2-trifluoroethyl)thieno[2,3-d]pyrimidin-4-yl]amino}cyclopentyl]amino}methyl)phenyl]-4-methoxypyridazine-3-carbonitrile hydrochloride]",GI50,MV-4-11 cells; [7],0.0626 µM
same,GI50,MV-4-11 cells; [8],0.0365 µM
same,GI50,MOLM-13 cells; [9],0.187 µM
same,GI50,MOLM-13 cells; [10],0.0562 µM
same,GI50,K562 cells; [11],3.8 µM
same,GI50,K562 cells; [12],1.84 µM
"COc1cncc(-c2ccc(CN[C@@H]3C[C@H](O)C[C@H](Nc4ncnc5sc(CC(F)(F)F)cc45)C3)cc2)c1 (single isomer, unassigned) [Example 15B, Hydrochloride]",GI50,MV-4-11 cells; [1],1.88 µM
same,GI50,MOLM-13 cells; [2],3.15 µM
same,GI50,K562 cells; [3],5.42 µM
"COc1cc(-c2ccc(CN[C@H]3C[C@@H](OC)[C@@H](N(C)c4ncnc5sc(CC(F)(F)F)cc45)C3)cc2)nnc1OC [Example 127, (1R,3S,4R)—N^1-{[4-(5,6-dimethoxypyridazin-3-yl)phenyl]methyl}-4-methoxy-N^3-methyl-N^3-[6-(2,2,2-trifluoroethyl)thieno[2,3-d]pyrimidin-4-yl]cyclopentane-1,3-diamine Hydrochloride]",GI50,MV-4-11 cells; [7],0.169 µM
same,GI50,MV-4-11 cells; [8],0.092 µM
same,GI50,MOLM-13 cells; [9],2.15 µM
same,GI50,MOLM-13 cells; [10],0.242 µM
same,GI50,K562 cells; [11],7.14 µM
same,GI50,K562 cells; [12],4.26 µM
"COc1nc(N(C)[C@H]2C[C@@H](NCC3CC=C(c4cc(OC)c(OC)nn4)CC3)C[C@H]2O)c2cc(CC(F)(F)F)sc2n1 (mixture of isomers) [Example 125, (1R,2S,4R)-4-({[4-(5,6-dimethoxypyridazin-3-yl)cyclohex-3-en-1-yl]methyl}amino)-2-{[2-methoxy-6-(2,2,2-trifluoroethyl)thieno[2,3-d]pyrimidin-4-yl](methyl)amino}cyclopentan-1-ol hydrochloride]",GI50,MV-4-11 cells; [8],0.0769 µM
same,GI50,MOLM-13 cells; [10],0.154 µM
same,GI50,K562 cells; [12],3.75 µM
"COc1ncc(-c2ccc(CN[C@H]3CC[C@@H](N(C)c4ncnc5sc(CC(F)(F)F)cc45)C3)cc2)s1 [Example 130, (1R,3S)—N^3-{[4-(2-methoxy-1,3-thiazol-5-yl)phenyl]methyl}-N^1-methyl-N^1-[6-(2,2,2-trifluoroethyl)thieno[2,3-d]pyrimidin-4-yl]cyclopentane-1,3-diamine Hydrochloride]",GI50,MV-4-11 cells; [7],0.241 µM
same,GI50,MOLM-13 cells; [9],0.894 µM
same,GI50,K562 cells; [11],1.9 µM
"COCc1cc2c(N(C)[C@@H]3CC[C@H](NCc4ccc(-c5cncc(OC)c5)cc4)C3)ncnc2s1 [Example 47, (1R,3S)-N^1-[6-(methoxymethyl)thieno[2,3-d]pyrimidin-4-yl]-N^3-{[4-(5-methoxypyridin-3-yl)phenyl]methyl}-N^1-methylcyclopentane-1,3-diamine hydrochloride]",GI50,MV-4-11 cells; [1],0.704 µM
same,GI50,MOLM-13 cells; [2],2.22 µM
same,GI50,K562 cells; [3],6.2 µM
"FC(F)(F)Cc1cc2c(N[C@@H]3CCC[C@H](NCc4ccc(-c5nnc[nH]5)cc4)C3)ncnc2s1 [Example 37, (1S,3R)-N^1-{[4-(4H-1,2,4-triazol-3-yl)phenyl]methyl}-N^3-[6-(2,2,2-trifluoroethyl)thieno[2,3-d]pyrimidin-4-yl]cyclohexane-1,3-diamine hydrochloride]",GI50,MV-4-11 cells; [1],5.21 µM
same,GI50,MOLM-13 cells; [2],7.21 µM
same,GI50,K562 cells; [3],> 10 µM

# Structures can show the parent of a compound that is named as a salt. Where two headings read alike, the source gives them in different places.
